{"sequences": {"note": "By UniProt entry, the sequences of proteins in these tests, tags left out. Where a name states a change or a piece, a line headed by the entry shows the natural chain unless it says otherwise.", "UniProt P22303": "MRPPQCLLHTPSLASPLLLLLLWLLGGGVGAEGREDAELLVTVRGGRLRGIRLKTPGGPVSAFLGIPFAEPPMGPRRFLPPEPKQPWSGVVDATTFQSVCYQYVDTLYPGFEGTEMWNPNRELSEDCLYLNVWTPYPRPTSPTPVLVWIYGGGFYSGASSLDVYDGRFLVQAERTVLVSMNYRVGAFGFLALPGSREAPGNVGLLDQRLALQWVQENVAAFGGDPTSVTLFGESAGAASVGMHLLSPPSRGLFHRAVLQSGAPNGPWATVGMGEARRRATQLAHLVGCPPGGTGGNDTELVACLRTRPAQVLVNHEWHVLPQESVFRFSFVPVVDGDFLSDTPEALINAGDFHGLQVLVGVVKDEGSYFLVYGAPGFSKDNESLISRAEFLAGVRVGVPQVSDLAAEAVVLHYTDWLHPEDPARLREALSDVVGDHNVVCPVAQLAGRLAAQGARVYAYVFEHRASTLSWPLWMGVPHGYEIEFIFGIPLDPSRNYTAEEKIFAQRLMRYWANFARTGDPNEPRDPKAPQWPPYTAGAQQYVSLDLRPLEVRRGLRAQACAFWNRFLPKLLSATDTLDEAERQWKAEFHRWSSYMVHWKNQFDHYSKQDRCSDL"}, "source": "ChEMBL document CHEMBL1121722", "about": "“Nonquaternary cholinesterase reactivators. Dialkylaminoalkyl thioesters of alpha-ketothiohydroximic acids as reactivators of diisopropyl phosphorofluoridate inhibited acetylcholinesterase” (1981)", "key": {"[1]": {"molecular_target": "Acetylcholinesterase (Homo sapiens) (UniProt P22303)", "assay": "Maximum attainable percent reactivation obtained for a range of concentrations of 0.0100 M*10e4 HOX and 0.0289 M *10e4OX; No affinity point measured"}, "[2]": {"molecular_target": "Acetylcholinesterase (Homo sapiens) (UniProt P22303)", "assay": "Ratio of kaKr to that of kr for reactivation of acetylcholinesterase at concentration of 2M*10e4 [HOX] and 10 Me-1*10e-3 [OX]e-1 was determined; Expressed as kaKr/kr; M*10e4"}, "[3]": {"molecular_target": "Acetylcholinesterase (Homo sapiens) (UniProt P22303)", "assay": "Kinetic constant was determined for reactivation of acetylcholinesterase at concentration of 0.160 M *10e4 [HOX] and 216Me-1*10e-3 [OX]e-1; (kobsd-ka)e-1, min"}, "[4]": {"molecular_target": "Acetylcholinesterase (Homo sapiens) (UniProt P22303)", "assay": "keff (rel) for reactivation of acetylcholinesterase at concentration of 2M*10e4 [HOX] and 10 Me-1*10e-3 [OX]e-1 was determined; Expressed as keff (rel)"}, "[5]": {"molecular_target": "Acetylcholinesterase (Homo sapiens) (UniProt P22303)", "assay": "Ratio of [EOP']infinity to that of [EOH]infinity for reactivation of acetylcholinesterase at concentration of 0.0800 M*10e4 [HOX] and 431Me-1*10e-3 [OX]e-1; Expressed as [EOP']infinity/[EOH]infinity"}, "[6]": {"molecular_target": "Acetylcholinesterase (Homo sapiens) (UniProt P22303)", "assay": "Ratio of [EOP'']infinity to that of [EOH]infinity for reactivation of acetylcholinesterase at concentration of 0.0300 M *10e4 [HOX] and 1156Me-1*10e-3 [OX]e-1; Expressed as [EOP'']infinity/[EOH]infinity"}, "[7]": {"molecular_target": "Acetylcholinesterase (Homo sapiens) (UniProt P22303)", "assay": "Ratio of [EOP'']infinity to that of [EOH]infinity for reactivation of acetylcholinesterase at concentration of 0.2M*10e4 [HOX] and 175Me-1*10e-3 [OX]e-1; Expressed as [EOP'']infinity/[EOH]infinity"}, "[8]": {"molecular_target": "Acetylcholinesterase (Homo sapiens) (UniProt P22303)", "assay": "Kinetic constant was determined for reactivation of acetylcholinesterase at concentration of 0.0300 M *10e4 [HOX] and 1156Me-1*10e-3 [OX]e-1; (kobsd-ka)e-1, min"}, "[9]": {"molecular_target": "Acetylcholinesterase (Homo sapiens) (UniProt P22303)", "assay": "Ratio of [EOP'']infinity to that of [EOH]infinity for reactivation of acetylcholinesterase at concentration of 7M*10e4 [HOX] and 3.80 Me-1*10e-3 [OX]e-1; Expressed as [EOP'']infinity/[EOH]infinity"}, "[10]": {"molecular_target": "Acetylcholinesterase (Homo sapiens) (UniProt P22303)", "assay": "Pseudo first order observed rate constants for reactivation of acetylcholinesterase at 4M*10e4 HOX and 1.52M*10e4OX; Kobs (min-1 X 10e3)"}, "[11]": {"molecular_target": "Acetylcholinesterase (Homo sapiens) (UniProt P22303)", "assay": "Kr for reactivation of acetylcholinesterase at concentration of 2M*10e4 [HOX] and 13.3Me-1*10e-3 [OX]e-1 was determined; Expressed as kr, M*10e4"}, "[12]": {"molecular_target": "Acetylcholinesterase (Homo sapiens) (UniProt P22303)", "assay": "Ratio of kaKr to that of kr for reactivation of acetylcholinesterase at concentration of 2M*10e4 [HOX] and 13.3Me-1*10e-3 [OX]e-1 was determined; Expressed as kaKr/kr; M*10e4"}, "[13]": {"molecular_target": "Acetylcholinesterase (Homo sapiens) (UniProt P22303)", "assay": "Kinetic constant was determined for reactivation of acetylcholinesterase at concentration of 7M*10e4 [HOX] and 3.80 Me-1*10e-3 [OX]e-1; (kobsd-ka)e-1, min"}, "[14]": {"molecular_target": "Acetylcholinesterase (Homo sapiens) (UniProt P22303)", "assay": "Ratio of [EOP'']infinity to that of [EOH]infinity for reactivation of acetylcholinesterase at concentration of 4M*10e4 [HOX] and 6.65Me-1*10e-3 [OX]e-1; Expressed as [EOP'']infinity/[EOH]infinity"}, "[15]": {"molecular_target": "Acetylcholinesterase (Homo sapiens) (UniProt P22303)", "assay": "Pseudo first order observed rate constants for reactivation of acetylcholinesterase at 6M*10e4 HOX and 2.26M*10e4OX; Kobs (min-1 X 10e3)"}, "[16]": {"molecular_target": "Acetylcholinesterase (Homo sapiens) (UniProt P22303)", "assay": "Pseudo first order observed rate constants for reactivation of acetylcholinesterase at 2M*10e4 HOX and 0.752M*10e4OX; Kobs (min-1 X 10e3)"}, "[17]": {"molecular_target": "Acetylcholinesterase (Homo sapiens) (UniProt P22303)", "assay": "Ratio of [EOP'']infinity to that of [EOH]infinity for reactivation of acetylcholinesterase at concentration of 20 M*10e4 [HOX] and 1.33Me-1*10e-3 [OX]e-1; Expressed as [EOP'']infinity/[EOH]infinity"}, "[18]": {"molecular_target": "Acetylcholinesterase (Homo sapiens) (UniProt P22303)", "assay": "Kinetic constant was determined for reactivation of acetylcholinesterase at concentration of 2M*10e4 [HOX] and 13.3Me-1*10e-3 [OX]e-1; (kobsd-ka)e-1, min"}, "[19]": {"molecular_target": "Acetylcholinesterase (Homo sapiens) (UniProt P22303)", "assay": "Pseudo first order observed rate constants for reactivation of acetylcholinesterase at 10M*10e4 HOX and 3.76M*10e4OX; Kobs (min-1 X 10e3)"}, "[20]": {"molecular_target": "Acetylcholinesterase (Homo sapiens) (UniProt P22303)", "assay": "Pseudo first order observed rate constants for reactivation of acetylcholinesterase at 12M*10e4 HOX and 4.51M*10e4OX; Kobs (min-1 X 10e3)"}, "[21]": {"molecular_target": "Acetylcholinesterase (Homo sapiens) (UniProt P22303)", "assay": "Maximum attainable percent reactivation obtained for a range of concentrations of 7M*10e4 HOX and 2.63M*10e4OX"}, "[22]": {"molecular_target": "Acetylcholinesterase (Homo sapiens) (UniProt P22303)", "assay": "Maximum attainable percent reactivation obtained for a range of concentrations of 6M*10e4 HOX and 2.26M*10e4OX"}}, "data": [{"compound": "C[n+]1ccccc1C=NO", "values": [{"measurement": "Reactivation", "setting": "[1]", "result": "No affinity point measured"}, {"measurement": "kaKr/kr", "setting": "[2]", "result": 75, "unit": "M"}, {"measurement": "1/kobsd-ka", "setting": "[3]", "result": 53.6, "unit": "min"}, {"measurement": "k eff (rel)", "setting": "[4]", "result": 145}, {"measurement": "[EOP']infinity/[EOH]infinity", "setting": "[5]", "result": 0.506}, {"measurement": "[EOP']infinity/[EOH]infinity", "setting": "[6]", "result": 0.964}, {"measurement": "[EOP']infinity/[EOH]infinity", "setting": "[7]", "result": "n"}, {"measurement": "1/kobsd-ka", "setting": "[8]", "result": 200, "unit": "min"}]}, {"compound": "CCN(CC)CCS/C(=N\\O)C(=O)c1ccc(OC)cc1", "values": [{"measurement": "[EOP']infinity/[EOH]infinity", "setting": "[9]", "result": 0.657}, {"measurement": "k obs", "setting": "[10]", "result": 73.5, "unit": "s⁻¹"}, {"measurement": "Kr", "setting": "[11]", "result": 29000, "unit": "M"}, {"measurement": "kaKr/kr", "setting": "[12]", "result": 21000, "unit": "M"}, {"measurement": "1/kobsd-ka", "setting": "[13]", "result": 180, "unit": "min"}, {"measurement": "[EOP']infinity/[EOH]infinity", "setting": "[14]", "result": 2.05}, {"measurement": "k obs", "setting": "[15]", "result": 85.7, "unit": "s⁻¹"}, {"measurement": "k obs", "setting": "[16]", "result": 50.4, "unit": "s⁻¹"}, {"measurement": "[EOP']infinity/[EOH]infinity", "setting": "[17]", "result": 0.357}, {"measurement": "1/kobsd-ka", "setting": "[18]", "result": 538, "unit": "min"}, {"measurement": "k obs", "setting": "[19]", "result": 0.121, "unit": "s⁻¹"}, {"measurement": "k obs", "setting": "[20]", "result": 0.115, "unit": "s⁻¹"}, {"measurement": "Reactivation", "setting": "[21]", "result": 4.1, "unit": "%"}, {"measurement": "Reactivation", "setting": "[22]", "result": 3.79, "unit": "%"}]}]}
